pEC50: −log10 of the molar value.
Experiments:
[1] = target: T1, human calcitonin receptor (hCTR2) (Homo sapiens, UniProt P30988); assay: hCTR2 cAMP assay (AlphaScreen) in COS7 cells; type: cell-based; conditions: cAMP induction, COS7 cells expressing hCTR2; Table 1
T1 construct: expressed in transfected cells
T1 sequence (P30988 25-474): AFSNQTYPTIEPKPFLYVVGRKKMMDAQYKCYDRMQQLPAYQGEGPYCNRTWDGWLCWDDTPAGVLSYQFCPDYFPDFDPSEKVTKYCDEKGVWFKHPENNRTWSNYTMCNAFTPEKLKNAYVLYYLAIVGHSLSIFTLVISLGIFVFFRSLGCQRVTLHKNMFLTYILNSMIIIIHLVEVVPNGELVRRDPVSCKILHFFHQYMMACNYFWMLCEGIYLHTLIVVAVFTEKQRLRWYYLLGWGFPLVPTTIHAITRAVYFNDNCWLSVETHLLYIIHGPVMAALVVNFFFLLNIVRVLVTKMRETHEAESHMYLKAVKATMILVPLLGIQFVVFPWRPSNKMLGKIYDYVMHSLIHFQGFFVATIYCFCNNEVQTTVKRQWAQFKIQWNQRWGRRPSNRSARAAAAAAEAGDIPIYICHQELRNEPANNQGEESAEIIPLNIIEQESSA
Text: (§1) The cell line COS7, originating from African Green Monkey kidney fibroblast cells, was used for establishment of the stable cell lines described below. The COS7 cellular background was used due to it being RAMP naïve, and as such it provides the best available system for testing of the monomeric hCTR and different heterodimeric amylin receptor subtypes functionally generated by introduction of the individual RAMPs.
A cell line expressing the human calcitonin receptor (hCTR2) was generated in the COS7 cellular background as stable clones. In brief, hCTR2 (GI: 4502547) was amplified by PCR using primers encoding terminal restriction sites for subcloning. The 5′-end primers additionally encoded a near Kozak consensus sequence to ensure efficient translation. The fidelity of the DNA encoding the receptor was confirmed by DNA sequencing. The PCR products encoding the receptor were subcloned into a mammalian expression vector containing a neomycin (G418) resistance marker. The mammalian expression vector encoding the receptor was transfected into COS7 cells by a standard liposome transfection method. […]
(§2) In vitro activity of test peptides at the hCTR2 and hAMYR3 receptors was assessed by measuring the induction of cAMP following stimulation of the receptor using the AlphaScreen® cAMP Assay kit from Perkin-Elmer. […]

[2] = target: T2, human amylin receptor 3 (hAMYR3), hCTR2 co-expressed with hRAMP3 (Homo sapiens, UniProt O60896+P30988); assay: hAMYR3 cAMP assay (AlphaScreen) in COS7 cells; type: cell-based; conditions: cAMP induction, COS7 cells expressing hAMYR3; Table 1
T2 construct: expressed in transfected cells
T2 sequence (P30988 25-474): T1 sequence (P30988 25-474)
T2 sequence (O60896 24-148 partner): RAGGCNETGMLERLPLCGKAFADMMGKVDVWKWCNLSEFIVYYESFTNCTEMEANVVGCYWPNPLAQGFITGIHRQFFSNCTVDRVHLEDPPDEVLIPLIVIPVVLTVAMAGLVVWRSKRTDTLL
Text: as §1
A cell line expressing the human amylin receptor 3 (hAMYR3) was generated in the COS7 cellular background as stable clones. In brief, hCTR2 (GI:4502547) and hRAMP3 (GI:118572586) were amplified by PCR using primers encoding terminal restriction sites for subcloning. The 5′-end primers additionally encoded a near Kozak consensus sequence to ensure efficient translation. The fidelity of the DNA encoding the receptor was confirmed by DNA sequencing. The PCR products encoding the receptor were subcloned into a proprietary tri-cistronic mammalian expression vector with RAMP3, hCTR2 and neomycin (G418) resistance marker. The mammalian expression vector encoding the receptor was transfected into COS7 cells by a standard liposome transfection method. […]
as §2

In the case of `CC[C@H](C)[C@H](NC(=O)[C@@H]1CCCN1C(=O)CNC(=O)[C@H](Cc1ccccc1)NC(=O)[C@H](CC(N)=O)NC(=O)[C@H](CC(N)=O)NC(=O)[C@H](CO)NC(=O)[C@H](CO)NC(=O)[C@H](Cc1c[nH]cn1)NC(=O)[C@@H](NC(=O)[C@H](CC(C)C)NC(=O)[C@H](Cc1ccccc1)NC(=O)[C@H](CC(N)=O)NC(=O)[C@H](C)NC(=O)[C@H](CC(C)C)NC(=O)[C@H](CCCNC(=N)N)NC(=O)[C@H](CCC(N)=O)NC(=O)[C@@H](NC(=O)[C@H](C)NC(=O)[C@@H]1CSSC[C@H](NC(=O)[C@@H](N)CCCCN)C(=O)N[C@@H](CC(N)=O)C(=O)N[C@@H]([C@@H](C)O)C(=O)N[C@@H](C)C(=O)N[C@@H]([C@@H](C)O)C(=O)N1)[C@@H](C)O)C(C)C)C(=O)N[C@@H](CC(C)C)C(=O)N1CCC[C@H]1C(=O)N1CCC[C@H]1C(=O)N[C@H](C(=O)N[C@@H](CC(N)=O)C(=O)N[C@H](C(=O)NCC(=O)N[C@@H](CO)C(=O)N[C@@H](CC(N)=O)C(=O)N[C@H](C(=O)N[C@@H](Cc1ccc(O)cc1)C(N)=O)[C@@H](C)O)C(C)C)[C@@H](C)O` [Pramlintide, reference compound], the pEC50 [1] was 8.85 and the pEC50 [2] was 9.64.
